Broadly, the EC50 is the concentration giving half of the maximal effect. High values mean a less potent agent, low ones a more potent agent.

By UniProt entry, the sequences of proteins in these tests, tags left out. Where a name states a change or a piece, a line headed by the entry shows the natural chain unless it says otherwise. Chains listed by the source or under a name are the forms on record and can include a tag or linker.
UniProt Q6P0Q8, other isoform, or with tags, fused parts or gaps: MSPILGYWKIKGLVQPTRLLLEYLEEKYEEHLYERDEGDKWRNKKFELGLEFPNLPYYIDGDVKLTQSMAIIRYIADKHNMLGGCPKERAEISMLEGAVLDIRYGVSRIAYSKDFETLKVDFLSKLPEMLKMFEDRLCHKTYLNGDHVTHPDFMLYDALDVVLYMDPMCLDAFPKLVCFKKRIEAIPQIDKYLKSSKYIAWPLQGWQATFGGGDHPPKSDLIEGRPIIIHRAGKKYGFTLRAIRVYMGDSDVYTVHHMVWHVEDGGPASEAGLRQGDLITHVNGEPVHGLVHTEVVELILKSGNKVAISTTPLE
UniProt Q9H190: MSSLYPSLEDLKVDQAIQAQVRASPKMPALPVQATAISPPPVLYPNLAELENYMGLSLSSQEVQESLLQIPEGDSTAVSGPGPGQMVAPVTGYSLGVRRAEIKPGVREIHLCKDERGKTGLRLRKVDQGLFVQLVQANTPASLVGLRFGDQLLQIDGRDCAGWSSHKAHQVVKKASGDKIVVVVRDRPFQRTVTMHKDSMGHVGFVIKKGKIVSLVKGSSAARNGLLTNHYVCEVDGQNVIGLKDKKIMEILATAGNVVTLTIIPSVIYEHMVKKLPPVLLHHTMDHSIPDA

The target of experiment [1] is T1, GST-RIM2 (KIAA0751) PDZ domain 1 (human).
T1 construct: Construct RIM2, PDZ domain 1-pGEX-3X; vector sites BamH1/EcoR1, insert sites BglII/MfeI; also called GST-RIM2 PDZ domain; RIM3 (as printed once)
Briefly: modified ELISA, plated GST-RIM2 PDZ domain, biotinylated peptide 0.001-10 µM, curve fit; Relative EC50.

Another experiment concerns the target T2, GST-ZO-1 PDZ domain 2 (human).
T2 construct: also called ZO-1 d2; ZO1 d2
Briefly: modified ELISA, GST-PDZ captured by anti-GST, biotinylated MUC1 peptide titrated, HRP-streptavidin. A general note: In an ELISA, binding on a coated surface is turned into a signal by an enzyme label.

The target of experiment [2] is T1, GST-RIM2 (KIAA0751) PDZ domain 1. Described as above.
The next experiment concerns the target T3, GST-MAST d2 PDZ domain (human, UniProt Q6P0Q8 1104-1192).
T3 construct: domain: PDZ; also called MAST2
The experiment is described as above.

The target in the next experiment is T4, GST-AIPC PDZ domain 1 (human).
T4 construct: also called AIPC1
The experiment is described as above.

Experiment [3] deals with T5, GST-KIAA1526 PDZ domain 1 (human).
T5 construct: also called KIAA1526 d1
The experiment is described as above.

Another experiment addresses GST-SITAC 18 PDZ domain (human, UniProt Q9H190). The description is as above.
The target in a further experiment is T6, GST-NSP PDZ domain (human).
T6 construct: also called Novel Serine Protease
The experiment is described as above.

The target in the next experiment is T7, GST-prIL16 PDZ domain 1 (human).
T7 construct: also called Pril-16 d1; PRIL-16 d1
Described as above.

Another experiment concerns the target T8, GST-SIP1 PDZ domain 1 (human).
T8 construct: also called SIP1 d1
The description is as above.

B1: YGRKKRRQRRRAVAATSANL (SEQ ID NO: 134) (peptide)
peptide: YGRKKRRQRRRAVAATSANL
modifications: biotinylated (position not given)
notes: also called TAT-MUC1; biotinylated TAT-MUC1 derived peptide
The molecule B1 yielded an EC50 in experiment [1] of 65 nM. That is a double-digit nanomolar value.

B2: MUC1 C-terminus peptide NGGSSLSYTNPAVAATSANL (SEQ ID NO: 96) (peptide)
peptide: NGGSSLSYTNPAVAATSANL
modifications: biotinylated (position not given)
notes: also called C-terminus of MUC1; MUC1 peptide
Regarding B2, the half-maximal effective concentration (EC50) with GST-ZO-1 PDZ domain 2 is 19 nM; in experiment [2], 16 nM; with GST-MAST d2 PDZ domain it was 39 nM; with GST-AIPC PDZ domain 1, 14 nM; in experiment [3] it was 51 nM; with GST-SITAC 18 PDZ domain it was 26 nM. The EC50 with GST-NSP PDZ domain was 27 nM; in the experiment with GST-prIL16 PDZ domain 1, 41 nM; with GST-SIP1 PDZ domain 1 it was 11 nM.

The values above are taken from patent US20080090770A1 (published 2008).
